Molecular target: recombinant human glandular kallikrein 2 (hK2) (human) (UniProt P20151)
Experiment: cell-based or functional assay

hK2 Activity (%) of inhibitor-free control, inhibitor at 5 µM: 10%
hK2 Activity (%) of inhibitor-free control, inhibitor at 30 µM: 33%
Substance: Aprotinin (from UniProt P00974 36-93)

From US20120309692A1
